# Assay results published in PubChem BioAssay AID865 (The Scripps Research Institute Molecular Screening Center, 2007).
# Only a part is listed here, and it is no random draw. Calls of active or inactive are those of the source.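 Rule for the calls: active = activation above the screen-wide mean activation plus 3 SD (cut at about 8% in these data); inactive = the rest.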
# Test: nonspecific BLA reporter activation – CHO NFAT-bla cells, FRET readout, counter-screen for GALR2 agonist project, confirmation (AID 865);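 note: 0% = DMSO with PBS wells and 100% = thapsigargin positive control wells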
# Settings: beta-lactamase FRET activation, at 5.6 µM, stronger effect = higher value
smiles,measurement,value
CCC(C)N(CC(C)C)C(=S)SC(NC(C)=O)C(Cl)(Cl)Cl (stereo unspecified),activation,inactive: -2.09%
